High-throughput results deposited in PubChem BioAssay by Broad Institute.
An excerpt weighted towards active compounds, which were near 1.7% of everything screened.
dFosB act: activators of mouse delta FosB homodimer | P13346 | purified delta FosB, TAMRA-CDK5 oligo fluorescence polarization; percent of positive-control signal above neutral wells | activation, % at 25 µM | 340,000 tested, 0.99% active | AID 493131;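 active = mean activation above about 17%, with every replicate also reaching it, limit read from the data, passing the limit was not always enough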
Dyrk1A ADPGlo: blocks rat Dyrk1A kinase activity | 310,000 tested, 0.43% active | inhibition, % at 12.5 µM | ADP-Glo luminescence, NFATc1 peptide; in the data active = inhibition above about 50%
UUG fidelity: alters start codon recognition fidelity in yeast. S. cerevisiae UUG-firefly luciferase reporter, luminescence/redox ratio. activity score, % at 18.7 µM. 0.13% of 350,000 active. AID 602363;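 active = replicate mean at a twofold rise or more, about +100% in these data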;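 also: firefly luciferase made from a UUG start codon reports start codon fidelity; reporter light over untreated wells divided by growth signal over untreated wells; some hits fall short of that in this replicate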
CDK5 inh: CDK5/p35 (human) kinase inhibition. AID 488839. 330,000 tested, 0.01% active. inhibition, % at 10 µM. Q00535+Q15078. Recombinant CDK5/p35, ADP-Glo luminescence, 60 min;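 active = highest replicate inhibition of at least 50% and at least 75% of replicates reaching 50%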
CAL PDZ FP-1: inhibitors of human CAL PDZ peptide binding; Q9HD26; purified CAL PDZ, TMR-peptide fluorescence polarization, 1 h; inhibition, % at 20 µM; 330,000 tested, 0.02% active; AID 504414;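 active = highest replicate inhibition of at least 40%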
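Test system: purified CerCALP PDZ construct; Compound dosing: one concentration, 20 µM compound; Also added: TMR-labelled reporter peptide T*-PRC34 bound in PDZ groove; Read-out: inhibition from polarization loss; Controls: unlabelled peptide and DMSO controls; Signal: FP readout, S and P plane fluorescence; Incubation: 1 h at RT.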
CAL PDZ FP-2: CAL PDZ (human) peptide binding inhibition. 300,000 tested, 0.92% active. Q9HD26. inhibition, % at 24.9 µM. purified CAL PDZ, TMR-peptide fluorescence polarization, 1 h. AID 602252;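 active = mean inhibition of at least 30% with at least half of replicates also reaching 30%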
Large screens that a line does not name were inactive; ! = not active in a repeat.

CN(C)CCC(C(=O)c1ccccc1)c1ccccn1 (configuration not stated)	CAL PDZ FP-2 85.4
Cc1ccc(S(=O)(=O)CCc2nnc(N)s2)cc1C	none
Cc1ccc(S(=O)(=O)CCc2nnc(NC(=O)CCl)s2)cc1C	CAL PDZ FP-2 46.0 (no result: UUG fidelity)
C[C@@H]1CN([C@H](C)CO)C(=O)c2cc(NS(=O)(=O)c3cn(C)cn3)ccc2O[C@@H](C)CCCCO[C@@H]1CN(C)CC1CCCCC1	none (no result: dFosB act, Dyrk1A ADPGlo, CDK5 inh, CAL PDZ FP-1, CAL PDZ FP-2)
O=C(CCC(=O)Nc1ccc(F)cc1)N/N=C/c1ccccc1	dFosB act 18.3
O=C(Cc1ccccc1)N/N=C/c1cc(Br)cc(Br)c1O	dFosB act 38.9
O=C(CCC(=O)Nc1ccc(Br)cc1)N/N=C/c1ccccc1O	dFosB act 28.9, CAL PDZ FP-2 active
CC(=O)NC[C@H]1[C@@H](c2ccc(-c3cccc(F)c3)cc2)[C@@H](CO)N1C(C)=O	none (no result: dFosB act, Dyrk1A ADPGlo, CDK5 inh, CAL PDZ FP-1, CAL PDZ FP-2)
COc1ccc(S(=O)(=O)Nc2cccc3c2O[C@@H](CN(C)S(=O)(=O)c2ccc(Cl)cc2)[C@H](C)CN([C@H](C)CO)C3=O)cc1	none (no result: dFosB act, Dyrk1A ADPGlo, CDK5 inh, CAL PDZ FP-1, CAL PDZ FP-2)
O=C(N[C@H]1CC[C@H](CC(=O)N2CCCCC2)O[C@@H]1CO)c1ccc2c(c1)OCO2	none (no result: dFosB act, Dyrk1A ADPGlo, CDK5 inh, CAL PDZ FP-1, CAL PDZ FP-2)
COc1ccccc1N(CC(=O)Nc1cc(S(=O)(=O)N(C)C)ccc1C)S(=O)(=O)c1cccs1	CAL PDZ FP-2 67.9
CCOC(=O)C1CCN(c2nc(-c3ccc(C)cc3)nc3ccccc23)CC1	CAL PDZ FP-2 84.8 (no result: Dyrk1A ADPGlo, UUG fidelity)
CCOC(=O)C1CCN(c2nc(-c3ccccc3)nc3c2oc2ccccc23)CC1	none (no result: UUG fidelity)
Cc1nn(CC(=O)N2CC(=O)Nc3ccccc32)c(C)c1[N+](=O)[O-]	CAL PDZ FP-2 63.1
C[C@@H](O)C#Cc1ccc([C@@H]2[C@H]3CN(C(=O)c4cccc(F)c4)CCCCN3[C@H]2CO)cc1	none (no result: dFosB act, Dyrk1A ADPGlo, CDK5 inh, CAL PDZ FP-1, CAL PDZ FP-2)
Cc1cc(C)cc(NC(=O)N2CCCC2C(=O)NCc2ccco2)c1 (configuration not stated)	CAL PDZ FP-2 75.6 (no result: UUG fidelity)
Cc1ccccc1N(CC(=O)O)S(C)(=O)=O	none (no result: UUG fidelity)
CCc1ccccc1N(CC(=O)O)S(C)(=O)=O	CAL PDZ FP-2 43.5 (no result: CAL PDZ FP-1)
CCNC(=O)[C@@H]1[C@@H](CO)[C@@H]2Cn3c(ccc(C4=CCCC4)c3=O)[C@H]1N2Cc1ccncc1	none (no result: dFosB act, Dyrk1A ADPGlo, CDK5 inh, CAL PDZ FP-1, CAL PDZ FP-2)
COc1ccc(OCCC(=O)OCC(=O)NCc2ccc(F)cc2)cc1	CAL PDZ FP-2 46.5 (no result: Dyrk1A ADPGlo, UUG fidelity)
CCn1cc(CNc2nc3nonc3nc2N2CCCCC2)cn1	CAL PDZ FP-2 72.0
C1CCN(c2nc3nonc3nc2N2CCCC2)C1	none
Cc1cccc(C(=O)Nc2ccn(C)n2)c1	CAL PDZ FP-2 54.7
COc1ccc(CN2C[C@@H](C)[C@@H](OC)CN(C)C(=O)c3cc(NC(C)=O)ccc3OC[C@@H]2C)cc1	none (no result: dFosB act, Dyrk1A ADPGlo, CDK5 inh, CAL PDZ FP-1, CAL PDZ FP-2)
C[C@@H]1CN([C@@H](C)CO)C(=O)c2cc(C3=CCCCC3)cnc2O[C@H]1CN(C)Cc1cccc(F)c1	none (no result: dFosB act, Dyrk1A ADPGlo, CDK5 inh, CAL PDZ FP-1, CAL PDZ FP-2)
Cc1cc(NS(=O)(=O)c2c(C(=O)N3CCOCC3)c(C)n(C)c2C)ccc1Br	CAL PDZ FP-2 77.6
Nc1nsc2ccccc12	none
Nc1nnc(N)c2ccccc12	CAL PDZ FP-2 57.2 (no result: UUG fidelity)
CCCC(=O)Nc1ccc(NC(=O)Cc2ccccc2)cn1	none
CCCC(=O)Nc1ccc(NC(=O)c2ccccc2Cl)nc1	CAL PDZ FP-2 40.8 (no result: CAL PDZ FP-1)
Cc1cc(C)cc(OCC(O)CN2CCC(CN3C(=O)c4cccc5cccc(c45)C3=O)CC2)c1 (configuration not stated)	dFosB act 51.9
c1ccc(CN2CCCC3(CCCN(Cc4nc(COc5ccccc5)no4)C3)C2)cc1 (configuration not stated)	CAL PDZ FP-2 51.9 (no result: UUG fidelity)
CCOCCCNC(=O)CN1C(=O)/C(=C/c2ccccc2C)Sc2ccccc21	CAL PDZ FP-2 31.3
COCCCNC(=O)CN1C(=O)/C(=C\c2ccc(C)cc2)Sc2ccccc21	none (no result: UUG fidelity)
Cc1nn(Cc2ccc(Cl)cc2Cl)c(C)c1NC(=O)c1sc2ccccc2c1Cl	none
Cc1nn(Cc2ccc(Cl)c(Cl)c2)c(C)c1NC(=O)c1sc2ccccc2c1Cl	CAL PDZ FP-2 34.6 (no result: Dyrk1A ADPGlo, CAL PDZ FP-1)
Nc1ccc2ccc(O)cc2c1	none (no result: Dyrk1A ADPGlo, CAL PDZ FP-2)
C[n+]1c2cc(N)ccc2cc2ccc(N)cc21	dFosB act 33.3!
C[C@H]1CN([C@@H](C)CO)C(=O)c2cc(-c3cncnc3)cnc2O[C@H]1CN(C)C(=O)c1cccc(F)c1	none (no result: dFosB act, Dyrk1A ADPGlo, CDK5 inh, CAL PDZ FP-1, CAL PDZ FP-2)
CC(C)C[C@@H](CO)NS(=O)(=O)c1c(F)cccc1F	CAL PDZ FP-2 35.2
